Screening data deposited in PubChem by National Center for Advancing Translational Sciences (NCATS).
LDHA block: LDHA (human) enzyme inhibition; P00338; purified LDHA, NADH/diaphorase-resazurin fluorescence; stronger effect = lower value; activity change, % (values are at about 110 or 230 µM); 480,000 tested, 0.15% active; in the data active = activity change below about -30%; inconclusive = mostly about -25% to -30%;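 note: plate controls were DMSO wells for no effect and wells without enzyme for full effect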
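LDH5 2 nM; NADH 0.06 mM, pyruvate 0.2 mM; 200 mM Tris pH 7.4, EDTA, Tween-20; 5 min RT. Detection: diaphorase 0.133 mg/mL + resazurin 37 µM, fluorescence ex540/em590 at 0 and 20 min; normalized to enzyme-free and DMSO wells.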
Apoferritin bind: binds horse apoferritin like a general anesthetic | P02791 | apoferritin/1-aminoanthracene competitive binding, fluorescence | Potency, µM (series often up to 77.5 µM), inactives show at the highest dose activity change, negative = displacement, most hits filed as inhibitors | 350,000 tested, 0.074% active | AID 485281; note: potency is the fitted concentration of half-maximal effect; % is set by controls: 0 for no effect and ±100 for the full control effect; nearly all actives have a fitted effect of over 20% in size
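Probe: 1-aminoanthracene (50% saturated, PBS). Protein: horse-spleen apoferritin, 10 uM. Incubation: 10 min, room temperature. Detection: 380 nm excitation, 535 nm emission. Analysis: normalized response, four-parameter Hill.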
miR-21 FLuc: raises the signal of a miR-21 reporter; HeLa miR-21 FLuc reporter, luciferase, 48 h; Potency, µM (highest dose often 38.3 µM), inactives show at the highest dose reporter change, positive = more light; 340,000 tested, under 10 active; active = well fitted rising curve with a large enough effect; inconclusive = small, poorly fitted or top-dose-only effect; inactive = no such curve, though single readings can be large or run the other way;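 note: % of control where 0% means no effect; miR-21 action dims this reporter so a rising signal means less miR-21 action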
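HeLa cells endogenously expressing miR-21, stably carrying CMV-driven firefly luciferase with a downstream miR-21 binding site, 2000 cells/well. Titrations up to approximately 40 uM, 48 hours; luciferase luminescence read.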
The depositor's hits bear a star; ! = not active in a repeat. An excerpt weighted towards active compounds, which were near 0.2% of everything screened. Unless noted, calls come from the whole dose curve; as a rule, active = well fitted curve in the direction sought with a large enough effect; inconclusive = small, poorly fitted or top-dose-only effect, or another doubt; inactive = no such curve, though single readings can be large; an effect the other way counts as inactive or inconclusive.

Results for Cn1c(O)c(/C=C2\C=Nc3ccccc32)sc1=Nc1ccc(C(=O)O)cc1 ?
LDHA block: -35*; Apoferritin bind: -6%; miR-21 FLuc: -13%

What do the screens show for `COc1ccccc1-n1[nH]c(CSc2nnnn2-c2ccccc2)cc1=O`?
LDHA block: -8

How did CNc1ccc2c(cc1=O)[C@@H](NC)CCc1cc(OC)c(OC)c(OC)c1-2 do in these assays?
LDHA block: 45

What do the screens show for `CC(=O)NC1(C(F)(F)F)C(=O)Nc2c1c(=O)[nH]c(=O)n2Cc1ccccc1` (centres undefined)?
LDHA block: -4

How did O=C(CCc1ccccc1)NC1(C(F)(F)F)C(=O)Nc2c1c(=O)[nH]c(=O)n2Cc1ccccc1 (centres undefined) do in these assays?
LDHA block: -35*

What do the screens show for `Clc1ccc(OCCN2CCOCC2)cc1`?
LDHA block: -4; Apoferritin bind: -7%; miR-21 FLuc: -14%

What do the screens show for `CCN1CCN(CCOc2ccccc2-c2ccccc2)CC1`?
LDHA block: -34*; Apoferritin bind: -7%; miR-21 FLuc: -8%

What do the screens show for `CCN1CCN(CCOc2ccc(Cl)cc2)CC1`?
LDHA block: -34*; Apoferritin bind: 1%; miR-21 FLuc: -7%

What do the screens show for `CCN1CCN(CCCOc2ccccc2-c2ccccc2)CC1`?
LDHA block: -19; Apoferritin bind: -3%; miR-21 FLuc: -13%

What do the screens show for `COc1ccc(Cn2c(SCc3ccc(C(=O)NCc4ccccc4F)cc3)nc3cccnc32)cc1`?
LDHA block: -1; Apoferritin bind: -12%; miR-21 FLuc: 0%

Arranged by SMILES length (ascending): part of the list above
What do the screens show for `Clc1ccc(OCCN2CCOCC2)cc1`?
LDHA block: -4; Apoferritin bind: -7%; miR-21 FLuc: -14%

What do the screens show for `CCN1CCN(CCOc2ccc(Cl)cc2)CC1`?
LDHA block: -34*; Apoferritin bind: 1%; miR-21 FLuc: -7%

What do the screens show for `CCN1CCN(CCOc2ccccc2-c2ccccc2)CC1`?
LDHA block: -34*; Apoferritin bind: -7%; miR-21 FLuc: -8%

What do the screens show for `CCN1CCN(CCCOc2ccccc2-c2ccccc2)CC1`?
LDHA block: -19; Apoferritin bind: -3%; miR-21 FLuc: -13%

What do the screens show for `COc1ccc(Cn2c(SCc3ccc(C(=O)NCc4ccccc4F)cc3)nc3cccnc32)cc1`?
LDHA block: -1; Apoferritin bind: -12%; miR-21 FLuc: 0%

How did O=C(CCc1ccccc1)NC1(C(F)(F)F)C(=O)Nc2c1c(=O)[nH]c(=O)n2Cc1ccccc1 (centres undefined) do in these assays?
LDHA block: -35*

Later entries.
How did O=C(NCc1ccccc1)c1ccc(CSc2nc3cccnc3n2Cc2ccccc2F)cc1 do in these assays?
LDHA block: -33*; Apoferritin bind: -12%; miR-21 FLuc: 6%

What do the screens show for `N#CCCN(C(=S)Nc1ccc(SC(F)F)cc1)c1ccccc1`?
LDHA block: 3

Results for N#C/C(=C/c1cccc(O)c1)c1ccc(C(F)(F)F)cn1 ?
LDHA block: -5

What do the screens show for `CN1CC[n+]2cnc3ccccc3c21`?
LDHA block: -33*; Apoferritin bind: 5%; miR-21 FLuc: -1%

How did Cc1ccnc2ccccc12 do in these assays?
LDHA block: 2

What do the screens show for `CN(C)CCN1C(=O)C(O)=C(C(=O)c2cc3ccccc3o2)C1c1ccc(OCc2ccccc2)cc1` (centres undefined)?
LDHA block: 0

How did CCCn1c(CN(C)Cc2ccccc2)nc2c1c(=O)n(C)c(=O)n2C do in these assays?
LDHA block: -2; Apoferritin bind: 5%; miR-21 FLuc: 15%

What do the screens show for `CN(Cc1ccccc1)Cc1nc2c(c(=O)n(C)c(=O)n2C)n1CCc1ccccc1`?
LDHA block: -31*!

Results for Cc1ccc(NC(=O)c2c3c(nc4ccccc24)CCCC3)cc1Cl ?
LDHA block: 3

What do the screens show for `CCCn1nc(C(=O)NCCc2cccs2)c2ccccc2c1=O`?
LDHA block: 4

Results for Cc1cccc(NC(=O)C2(C)Cc3ccccc3C(=O)O2)c1 (centres undefined) ?
LDHA block: -1; Apoferritin bind: inconclusive; miR-21 FLuc: -23%

How did CC1(C(=O)Nc2cccc(C(F)(F)F)c2)Cc2ccccc2C(=O)O1 (centres undefined) do in these assays?
LDHA block: 1; Apoferritin bind: 16µM*; miR-21 FLuc: -2%

Results for COC(=O)C1=C(N)OC2=C(C(=O)CC(c3ccccc3)C2)C1c1ccc(C)cc1 (centres undefined) ?
LDHA block: 6

How did C=CCn1c(NCCCOC)nc2c1c(=O)[nH]c(=O)n2C do in these assays?
LDHA block: -35*

What do the screens show for `C=CCn1c(NCCN(C)C)nc2c1c(=O)[nH]c(=O)n2C`?
LDHA block: -12

Results for Cc1ccc(/C=N/Nc2ccnc3cc(Cl)ccc23)s1 ?
LDHA block: 6

Results for Cc1nn(C)c(C)c1CNCc1ccnc(N2CCOCC2)c1 ?
LDHA block: -1

Results for Cc1nn(C)c(C)c1CNCc1cccnc1N1CCOCC1 ?
LDHA block: -38*

How did CCCCCC/C(C)=C1/SC(=S)NC1=O do in these assays?
LDHA block: -1; Apoferritin bind: inconclusive; miR-21 FLuc: -2%

How did C/C(C/C(C)=C1/SC(=S)NC1=O)=C1\SC(=S)NC1=O do in these assays?
LDHA block: -34*; Apoferritin bind: -9%; miR-21 FLuc: 0%

Results for O=C1/C(=C\c2ccccc2)CCc2ccccc21 ?
LDHA block: 1

Results for O=C1/C(=C/c2ccccc2)CSc2sccc21 ?
LDHA block: -1; Apoferritin bind: 14µM*; miR-21 FLuc: -43%

How did O=S(=O)(Nc1nc2ccccc2nc1NCCc1ccccc1)c1ccc(F)cc1 do in these assays?
LDHA block: 3

Results for CCOc1ccc(CNC(=O)c2cnc3sc(N4CCOCC4)nn3c2=O)cc1 ?
LDHA block: -6; Apoferritin bind: -9%; miR-21 FLuc: 0%

What do the screens show for `CCCCOc1ccc(CNC(=O)c2cnc3sc(N4CCOCC4)nn3c2=O)cc1`?
LDHA block: 0; Apoferritin bind: 4.5µM*; miR-21 FLuc: -4%

What do the screens show for `CCCNC(=O)C(C)OC(=O)c1cc2ccc(OC)cc2nc1C` (centres undefined)?
LDHA block: 8

What do the screens show for `COc1ccc2cc(C(=O)OC(C)C(N)=O)c(C)nc2c1` (centres undefined)?
LDHA block: -32*

Results for CN1C(=O)CSc2ccc(NC(=O)NCCC3=CCCCC3)cc21 ?
LDHA block: 1; Apoferritin bind: 22µM*; miR-21 FLuc: 10%

Results for CC(C)CCNC(=O)Nc1ccc2c(c1)N(C)C(=O)CS2 ?
LDHA block: 0; Apoferritin bind: inconclusive; miR-21 FLuc: -17%

What do the screens show for `CCOc1cccc(CNC2CC2)c1`?
LDHA block: -9

What do the screens show for `CCOc1ccc(NC(=O)C(C#N)=C2CCC(C)CC2)cc1` (centres undefined)?
LDHA block: 13

Results for COc1ccc(NC(=O)N(C)[C@H]2C[C@H]3c4[nH]c5ccccc5c4CCN3C[C@H]2[C@H](C)O)cc1 ?
LDHA block: -25

Results for COc1ccc(CN(C)[C@H]2C[C@H]3c4[nH]c5ccccc5c4CCN3C[C@H]2[C@H](C)O)cc1 ?
LDHA block: -30*

What do the screens show for `COc1ccc(N2C(=O)C(C)CS2(=O)=O)cc1S(=O)(=O)Nc1ccc(Cl)cc1` (centres undefined)?
LDHA block: -3

Results for O=C1CC(/C=C/c2ccco2)=Nc2ccccc2N1 ?
LDHA block: -1; Apoferritin bind: -19%; miR-21 FLuc: -1%

What do the screens show for `O=C1CC(C(F)(F)C(F)(F)C(F)(F)C(F)F)=Nc2ccccc2N1`?
LDHA block: -9; Apoferritin bind: 50µM*; miR-21 FLuc: -13%

What do the screens show for `CC1CCCCC1NC(=O)COC(=O)c1ccc(S(=O)(=O)NCc2ccco2)cc1` (centres undefined)?
LDHA block: -8; Apoferritin bind: inconclusive; miR-21 FLuc: -1%

Results for O=C(COC(=O)c1ccc(S(=O)(=O)NCc2ccco2)cc1)NC1CCCCCC1 ?
LDHA block: 1; Apoferritin bind: 35µM*; miR-21 FLuc: -5%
